What is called IC50 is the midpoint of a concentration-inhibition curve. High values mean lower potency, low ones higher potency.

Sequences of proteins named here, by UniProt entry; tags and fusion partners are left off. A change or cut given only in a name is not applied to a line headed by its entry.
UniProt P67870, whole entry, looked up: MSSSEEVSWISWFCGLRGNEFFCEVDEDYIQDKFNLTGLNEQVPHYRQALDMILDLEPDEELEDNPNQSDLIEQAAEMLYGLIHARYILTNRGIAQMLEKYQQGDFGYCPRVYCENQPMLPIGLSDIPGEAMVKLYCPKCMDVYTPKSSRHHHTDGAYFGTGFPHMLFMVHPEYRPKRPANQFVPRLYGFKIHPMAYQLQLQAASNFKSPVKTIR
UniProt P68400, whole entry, looked up: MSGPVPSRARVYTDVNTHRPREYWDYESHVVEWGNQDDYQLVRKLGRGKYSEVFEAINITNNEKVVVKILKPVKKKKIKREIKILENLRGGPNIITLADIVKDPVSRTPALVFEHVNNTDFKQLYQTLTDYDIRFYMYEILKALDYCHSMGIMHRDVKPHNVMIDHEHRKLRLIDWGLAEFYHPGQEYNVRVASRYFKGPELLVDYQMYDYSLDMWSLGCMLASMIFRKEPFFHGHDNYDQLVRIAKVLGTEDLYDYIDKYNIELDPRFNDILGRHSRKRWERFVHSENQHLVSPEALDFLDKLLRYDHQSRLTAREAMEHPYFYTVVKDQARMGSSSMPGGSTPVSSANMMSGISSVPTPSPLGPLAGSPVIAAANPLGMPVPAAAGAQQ
UniProt P19784, whole entry, looked up: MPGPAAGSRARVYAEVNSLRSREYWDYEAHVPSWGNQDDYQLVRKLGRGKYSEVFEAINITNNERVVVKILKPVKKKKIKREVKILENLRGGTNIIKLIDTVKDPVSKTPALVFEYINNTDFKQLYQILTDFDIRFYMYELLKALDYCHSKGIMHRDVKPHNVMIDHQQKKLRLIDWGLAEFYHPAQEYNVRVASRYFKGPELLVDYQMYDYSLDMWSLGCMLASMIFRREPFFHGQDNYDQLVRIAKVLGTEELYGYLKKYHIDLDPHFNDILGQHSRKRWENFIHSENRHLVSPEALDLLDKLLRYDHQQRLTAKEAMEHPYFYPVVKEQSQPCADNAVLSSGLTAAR
UniProt P48736: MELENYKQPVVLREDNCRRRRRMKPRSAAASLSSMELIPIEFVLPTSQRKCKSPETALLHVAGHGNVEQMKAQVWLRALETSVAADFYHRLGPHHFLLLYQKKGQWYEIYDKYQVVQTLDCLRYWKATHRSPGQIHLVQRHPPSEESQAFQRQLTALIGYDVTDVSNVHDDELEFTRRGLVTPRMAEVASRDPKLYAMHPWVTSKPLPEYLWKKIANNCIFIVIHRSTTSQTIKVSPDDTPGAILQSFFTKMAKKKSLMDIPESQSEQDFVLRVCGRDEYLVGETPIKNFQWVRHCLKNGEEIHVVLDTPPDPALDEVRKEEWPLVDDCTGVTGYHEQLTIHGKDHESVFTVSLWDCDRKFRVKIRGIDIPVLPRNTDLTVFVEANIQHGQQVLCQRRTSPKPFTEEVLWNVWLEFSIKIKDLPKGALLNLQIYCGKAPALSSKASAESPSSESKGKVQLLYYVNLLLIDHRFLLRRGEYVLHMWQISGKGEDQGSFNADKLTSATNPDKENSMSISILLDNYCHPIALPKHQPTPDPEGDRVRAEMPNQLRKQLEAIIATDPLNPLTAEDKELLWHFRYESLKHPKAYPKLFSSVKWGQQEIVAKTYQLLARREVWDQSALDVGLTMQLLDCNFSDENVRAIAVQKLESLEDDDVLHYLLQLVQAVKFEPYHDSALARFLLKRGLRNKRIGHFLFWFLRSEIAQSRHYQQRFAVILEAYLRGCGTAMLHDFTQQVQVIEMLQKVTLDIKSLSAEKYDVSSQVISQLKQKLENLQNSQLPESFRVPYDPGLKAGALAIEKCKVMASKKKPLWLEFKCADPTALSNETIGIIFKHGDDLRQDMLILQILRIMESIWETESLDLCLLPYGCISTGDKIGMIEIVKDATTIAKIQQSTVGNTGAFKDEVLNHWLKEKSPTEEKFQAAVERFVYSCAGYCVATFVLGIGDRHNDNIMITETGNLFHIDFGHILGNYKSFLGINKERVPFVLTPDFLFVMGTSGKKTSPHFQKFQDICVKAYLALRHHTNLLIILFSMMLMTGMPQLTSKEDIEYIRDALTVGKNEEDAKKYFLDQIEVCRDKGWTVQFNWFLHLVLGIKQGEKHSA

Test [1] has as its target Casein kinase II (Homo sapiens) (UniProt P67870+P68400+P19784). Kind of test: Residual activity at human CK2 at 10 uM in presence of 10 uM ATP relative to control. The class given is protein-complex assay.
In test [2] the target is Phosphatidylinositol 4,5-bisphosphate 3-kinase catalytic subunit gamma isoform (Homo sapiens, UniProt P48736). The test is described as follows: Inhibition of human PI3Kgamma.

In the case of `O=C1NC(=O)/C(=C/c2ccc(-c3ccc(F)cc3O)o2)S1`, in test [1], the Activity came out at 6%.
Turning to `O=c1cc(N2CCOCC2)oc2c(-c3ccccc3)cccc12` [LY-294002], in test [2], the midpoint of inhibition, the IC50, lay at 7.26 µM.

(Values after ChEMBL document CHEMBL1138050, “Furan-2-ylmethylene thiazolidinediones as novel, potent, and selective inhibitors of phosphoinositide 3-kinase gamma” (J Med Chem, 2006).)
